Earlier results in US4444690A, “Technetium chelates” (priority 1982, dated 1984).

Settings: in vivo; cited from earlier work

## 1,2-Bis(mercaptoacetamido)ethane [Tc-DADS]
  renal clearance in words: cleared by the kidneys significantly faster than Tc-99m diethylenetriaminepentaacetic acid (Tc-99m DTPA, p<0.01) and slightly slower than I-131 o-iodohippurate (p>0.05)
